From patent EP4834882A1, “ALDOSTERONE SYNTHETASE INHIBITOR, AND PREPARATION METHOD THEREFOR AND USE THEREOF” (dated 2026)

The chains behind the UniProt entries cited, without tags or fusion partners. Residues count along the entry.
UniProt P19099, 25-503 limits assumed: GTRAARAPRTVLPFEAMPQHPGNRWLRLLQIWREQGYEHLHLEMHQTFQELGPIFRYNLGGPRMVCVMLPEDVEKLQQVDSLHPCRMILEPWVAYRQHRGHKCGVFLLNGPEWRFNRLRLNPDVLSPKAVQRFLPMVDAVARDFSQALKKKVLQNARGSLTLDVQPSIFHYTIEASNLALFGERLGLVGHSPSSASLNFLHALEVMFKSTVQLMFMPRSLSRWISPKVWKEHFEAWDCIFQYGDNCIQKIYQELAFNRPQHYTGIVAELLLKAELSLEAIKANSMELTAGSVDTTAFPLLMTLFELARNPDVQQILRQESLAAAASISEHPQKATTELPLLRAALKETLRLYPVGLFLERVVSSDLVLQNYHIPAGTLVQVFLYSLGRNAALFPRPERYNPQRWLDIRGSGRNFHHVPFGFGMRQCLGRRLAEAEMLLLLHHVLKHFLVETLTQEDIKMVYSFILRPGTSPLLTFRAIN
UniProt P15538, 25-503 limits assumed: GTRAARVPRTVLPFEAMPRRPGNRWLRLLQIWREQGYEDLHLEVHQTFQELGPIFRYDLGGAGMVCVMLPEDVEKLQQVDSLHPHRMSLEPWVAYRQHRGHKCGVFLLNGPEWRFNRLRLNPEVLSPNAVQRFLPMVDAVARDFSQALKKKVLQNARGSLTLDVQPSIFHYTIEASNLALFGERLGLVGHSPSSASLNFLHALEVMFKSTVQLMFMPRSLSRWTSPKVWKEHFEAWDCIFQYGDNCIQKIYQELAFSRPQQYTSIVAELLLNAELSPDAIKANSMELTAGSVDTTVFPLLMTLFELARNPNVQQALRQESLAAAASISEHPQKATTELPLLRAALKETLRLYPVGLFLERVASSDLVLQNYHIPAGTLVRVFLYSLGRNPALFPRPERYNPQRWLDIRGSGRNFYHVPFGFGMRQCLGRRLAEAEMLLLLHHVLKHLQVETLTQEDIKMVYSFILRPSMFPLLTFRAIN

Experiments:
[1] = In vitro hepatic microsome stability; details: Human hepatic microsomes
Protocol: The compounds of Examples 1-49 (test substances) and the positive control drug were dissolved in DMSO to prepare stock solutions (10 mM). The stock solutions were diluted with acetonitrilewater (1:1, v/v) to obtain 100 µM solutions, which was further diluted with 0.1 M potassium phosphate buffer to obtain working solutions (30 µM).
NADPH powder was weighed and dissolved in 0.1 M potassium phosphate buffer to obtain a 5 mg/mL solution.
Hepatic microsomes from each species (20 mg/mL) were diluted with 0.1 M potassium phosphate buffer to parepare 0.8 mg/mL hepatic microsome working solutions.
25 µL of the test substance or positive control drug working solution was added to 475 µL of the hepatic microsome working solution and mixed thoroughly. The mixture was aliquoted into a 96-well plate at 30 µL/well (n=2). For the 0 min samples, 150 µL of internal standard acetonitrile solution was added to precipitate proteins, followed by the addition of 15 µL of NADPH solution, and these samples were then stored in a refrigerator at 4°C. Other samples were pre-incubated at 37°C for 10 min. For the 20 min and 60 min samples, 15 µL of NADPH solution was added to initiate the reaction. For samples without NADPH, 15 µL of potassium phosphate buffer was added instead. All samples were then incubated at 37°C. Upon reaching the designated reaction time, 150 µL of internal standard acetonitrile solution was added to precipitate proteins.
The precipitated samples were vortexed and then centrifuged at 4000 rpm for 5 min. 100 µL of purified water was added to the supernatant , followed by LC-MS analysis.
The peak area ratio of the analyte to the internal standard was used to calculate the relative percentage of the compound remaining after incubation (remaining rate %) and for exponential function fitting. The calculation formula was as follows: [formula] [formula] [formula]

human CYP11B2 = human CYP11B2 (Homo sapiens, UniProt P19099); experiment: H295R steroidogenesis assay, inhibition of aldosterone synthase; details: read-out: CYP11B2 Ki; NCI-H295R cells, 10 µM deoxycorticosterone, 48 h, aldosterone by LC-MS; Ki = IC50/(1 + [S]/Km)
Protocol: (§1) The H295R steroidogenesis assay system was used in the present invention for testing the enzyme activities of human CYP11B1, human CYP11B2, etc. The in vitro H295R steroidogenesis assay system utilizes a human adrenocortical carcinoma cell line (NCI-H295R cells) as a Tier 2 "in vitro assay that provides mechanistic data" for screening and prioritization purposes. The development and standardization of this method were performed in a multi-step process for screening chemical effects on steroidogenesis, and the H295R assay method has been optimized and validated according to the OECD Test Guideline (Test Guideline No. 456 H295R Steroidogenesis Assay).
(§2) NCI-H295R cells were purchased from ATCC. After initiating culture from the original ATCC batch, NCI-H295R cells were cultured for five passages (i.e., undergo four rounds of cell divisions), and then the cells at passage five were cryopreserved and stored in liquid nitrogen.
(§3) H295R cells were cultured in a cell culture incubator at 37°C and 5% CO2, and the medium was replaced 2-3 times per week. Cells were passaged when they reached approximately 85-90% confluency. The medium was aspirated, and the cells were washed three times with DPBS (Ca^2+ and Mg^2+ -free), and then trypsin was added to digest for 1-3 min. The digestion was terminated by adding 3 mL of culture medium. The cells were then dislodged by pipetting, and any remaining cells were rinsed off with 1 mL of medium. The cell suspension was pooled and transferred to a 15 mL centrifuge tube. After centrifuging at room temperature and 800 rpm for 5 min, the supernatant was discarded, the pellet was resuspended in 3 mL of medium, and the cell suspension was counted. The edge wells of a 96-well plate are left empty, and the remaining wells are seeded with 50,000 cells per well in 100 µL of 10% FBS DMEM/F12 (1:1) basal medium..After overnight recovery, the medium was replaced with basal medium containing 10 µM Forskolin (150 µL per well), and the cells were incubated for 48 h. After 48 h, the medium was replaced with basal medium containing 10 µM deoxycorticosterone. The compound was dissolved in DMSO to prepare a 100 mM stock solution. Starting from 100 mM, the compounds are subjected to 3-fold serial dilutions in DMSO, resulting in 10 concentration points. These 10 concentration points was then diluted 10-fold with blank DMEM:F12 (1:1) medium, resulting in a starting concentration of 10 mM. An aliquot of 1.5 µL of each compound concentration was added to the cells, achieving a final DMSO concentration of 0.1% and a starting compound concentration of 100 µM. After incubation for 48 h, 40 µL of cell supernatant was collected and analyzed for the levels of aldosterone and cortisol by LC-MS.
(§4) The inhibition rate was calculated using the following formula: [formula]
(§5) Using the logarithm of the compound concentration as the x-axis and the inhibition rate as the y-axis. Nonlinear regression curve fitting was performed using Graphpad 9.0 to calculate the IC50 value (Y=Bottom+(Top - Bottom)/(1+ 10^((LogIC50 - X)×HillSlope))), Ki = IC50/(1 + [S]/Km), and the test results are shown in Table 1. Unless otherwise specified, competitive inhibition is assumed for all proteases. Selectivity = CYP11B1 Ki (nM)/CYP11B2 Ki (nM); wherein, A represents a selectivity value between 0 and 50, B represents a selectivity value between 51 and 100, C represents a selectivity value between 101 and 150, and D represents a selectivity value above 151. Table 1: Inhibitory effect of compounds on CYP11B2

human CYP11B1 = human CYP11B1 (Homo sapiens, UniProt P15538); experiment: H295R steroidogenesis assay, selectivity CYP11B1 versus CYP11B2; details: Selectivity = CYP11B1 Ki (nM)/CYP11B2 Ki (nM); NCI-H295R cells
Protocol: as §1, §2, §3, §4, §5

T1/2 ([1]; with NADPH, 37°C): 31.8 h | ER ([1]; slow metabolism ER<0.3, moderate 0.3<ER<0.7, fast ER>0.7): 0.04 | Ki (human CYP11B2): < 50 nM
SMILES: CCC(=O)N[C@@H]1CCCc2c(-c3ccc4c(C#N)nccc4c3)cncc21
Selectivity (human CYP11B1): B (B represents a selectivity value between 51 and 100)
